Values of other authors, collected in patent publication US6599878B2, “Superoxygenating blood substitutes based on hemoglobin and dihydropyidine compositions” (priority 1992, dated 2003).

Details: Vasey et al.; SNP 50.0 μg/kg/min or […]30 minutes; cited from earlier work

Substance: sodium nitroprusside
- whole blood cyanide: approximately 1.8 mg/L
